Source: article PMC7184563 (Journal of Medicinal Chemistry, 2020)

Target: human BCL6 BTB domain (Homo sapiens, UniProt P41182)

Row | SMILES | fold drop in activity (TR-FRET) [fold] | fold better potency (TR-FRET) [fold]
1 | Cn1c(=O)n(CCC(C)(C)O)c2cc(Nc3c(Cl)cncc3Cl)ccc21 [Compound 17f, 5-((3,5-Dichloropyridin-4-yl)amino)-3-(3-hydroxy-3-methylbutyl)-1-methyl-1,3-dihydro-2H-benzo[d]imidazol-2-one] | 37 | –
2 | Cn1c(=O)n(CCC(C)(C)O)c2cc(Nc3nc(N4CCOCC4)ncc3Cl)ccc21 [Compound 20a, 5-((5-Chloro-2-morpholinopyrimidin-4-yl)amino)-3-(3-hydroxy-3-methylbutyl)-1-methyl-1,3-dihydro-2H-benzo[d]imidazol-2-one] | – | 4
